Results: publication PMC6759796, “Integrating Pharmacokinetics Study, Network Analysis, and Experimental Validation to Uncover the Mechanism of Qiliqiangxin Capsule Against Chronic Heart Failure” (Frontiers in Pharmacology, 2019)

Assay: Pharmacokinetics of 29 QLQX components in rat plasma by HPLC-MS/MS after intragastric QLQX
Details: QLQX suspension […] intragastrically, mean ± SD

Work on Hydroxysafflor yellow A yielded a Tmax of 0.17 ± 0.00 and a t1/2 of 5.03 ± 2.00.
